Chains of the proteins cited; added tags and fusions are not shown. Residues count along the entry.
UniProt P49862, 30-253 limits assumed: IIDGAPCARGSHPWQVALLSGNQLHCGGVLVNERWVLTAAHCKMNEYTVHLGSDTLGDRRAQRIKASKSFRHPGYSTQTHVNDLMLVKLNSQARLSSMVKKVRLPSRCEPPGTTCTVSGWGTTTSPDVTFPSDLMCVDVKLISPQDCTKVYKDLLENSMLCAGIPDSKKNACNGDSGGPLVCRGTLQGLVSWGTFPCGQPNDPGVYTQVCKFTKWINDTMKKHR

In patent US8415305B2, “Use of cyclic depsipeptides to inhibit kallikrein 7” (Novartis AG, priority 2007, dated 2013):

Target: human kallikrein 7 (hKallikrein7) (Homo sapiens, UniProt P49862)
Assay: Kallikrein 7 fluorescence-quenched substrate enzymatic assay (IC50)
Details: read-out: IC50 human kallikrein 7
Experimental: An “inhibitor” is a cyclic depsipeptide that inhibits an enzymatic reaction with a measure IC50 of less than […], for instance 50 μM, 30 μM, 20 μM or 10 μM. Particularly preferred are cyclic depsipeptides with an IC50 of less than 30 μM for human kallikrein 7, for instance cyclic depsipeptides with an IC50 of less than 10 μM, 1 μM, 100 nM, 50 nM, 40 nM, 30 nM, 20 nM, 10 nM, or less. IC50 for human kallikrein can be measured using the fluorescence-quenched substrate Ac-Glu-Asp(EDANS)-Lys-Pro-lle-Leu-Phe^Arg-Leu-Gly-Lys(DABCYL)-Glu-NH2 (SEQ ID NO 1) (where ^ indicates the scissile bond, identified by MS analysis) which can be purchased from Biosyntan (Berlin, Germany). Enzymatic reactions are conducted in 50 mM sodium citrate buffer at pH 5.6 containing 150 mM NaCl and 0.05% (w/v) CHAPS. […]
The fluorescence-quenched substrate Ac-Glu-Asp(EDANS)-Lys-Pro-lle-Leu-Phe^Arg-Leu-Gly-Lys(DABCYL)-Glu-NH2 (SEQ ID NO1) (where ^ indicates the scissile bond, identified by MS analysis) is purchased from Biosyntan (Berlin, Germany) and kept as a 5 mM stock solution in DMSO at −20° C. […]
For fluorescence intensity (FI) measurements an Ultra Evolution reader (TECAN, Maennedorf, Switzerland) is used. The instrument is equipped with a combination of a 350 nm (20 nm bandwidth) and a 500 nm (25 nm bandwidth) bandpath filter for fluorescence excitation and emission acquisition, respectively. […]

- IC50: < 3 nM
Compound: CC(C)CC(=O)N[C@@H](CCC(N)=O)C(=O)N[C@@H]1C(=O)N[C@@H](CC(C)C)C(=O)NC2CC[C@H](O)N(C2=O)[C@@H](Cc2ccccc2)C(=O)N(C)[C@@H](Cc2ccc(O)cc2)C(=O)N[C@@H](C(C)C)C(=O)O[C@@H]1C (stereo partly shown)
